# Measured affinities in a library of Ab-14 heavy chain variants

From the AlphaSeq antibody data of Li et al. 2023 (doi:10.1038/s41467-023-39022-2), copy in the FLAb collection.

Target peptide (SARS-CoV-2 spike, HR2 region): PDVDLGDISGINAS

Parent: Ab-14, a human scFv built as VH, the linker GGGGSGGGGSGGGGS, VL. Only the CDRs of the heavy chain vary.
VH: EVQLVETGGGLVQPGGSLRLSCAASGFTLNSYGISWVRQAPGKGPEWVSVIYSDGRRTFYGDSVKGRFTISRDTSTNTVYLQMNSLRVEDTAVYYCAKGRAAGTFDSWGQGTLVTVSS
VL: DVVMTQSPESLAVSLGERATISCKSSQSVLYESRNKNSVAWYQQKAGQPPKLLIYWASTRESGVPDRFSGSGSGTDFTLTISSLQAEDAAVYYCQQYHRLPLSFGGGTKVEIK

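The starting antibody came from a phage panning campaign against this peptide. The variants were designed computationally from a first round of random CDR variants and then made and measured. Their group label is 14H_En_Gibbs (En: ensemble of fine-tuned language models; Gibbs: Gibbs sampling). Affinity was read by AlphaSeq, a pooled yeast mating assay with surface-displayed partners. After mating in shaken culture at 30 °C for 16 h, diploids were selected and their barcode pairs sequenced. Scores were corrected for input abundance and mapped to Kd with protein pairs of known affinity run in the same pool. The assay was run in six technical replicates.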

Each variant is given by its three heavy chain CDRs, as the data file delimits them; those of the parent are GFTLNSYGIS, VIYSDGRRTFYGDSVK, GRAAGTFDS. Scale: log10 of Kd in nM, estimated from mating counts; low values are strong binders. Averages over replicates are reported, and they cover detected replicates only. "ND" means that the variant was in the library but no mating with the target was seen in that replicate; the authors take this as a sign of poor binding, and no number exists.

| CDR-H1 | CDR-H2 | CDR-H3 | log10 Kd, replicates | mean log10 Kd (nM) | control signals |
|---|---|---|---|---|---|
| GFNLEDYGIS | VIYADGKRQAYTENVK | CHSDGIMVV | 0.50 1.14 1.00 1.09 0.92 2.17 | 1.13 | 1/18 (2.22) |
| GFDLQEYGVS | VIYADGRRASYASKFK | GNHSGYFDK | ND ND ND ND ND ND | ND | 0/18 |
| GFDINEYGIS | VIYADGMRTKYSESVK | GTVDEDFNG | ND ND ND ND ND ND | ND | 0/18 |
| GFQLNEYGIS | VIYADGKRSEYADSVK | GGINSSFSV | ND ND ND ND ND ND | ND | 0/18 |
| GFDLLEYGIS | VIYADGMRVAYAKDVK | GMEGQLVVD | ND ND ND ND ND ND | ND | 0/18 |
| GFNLDEFGIS | VIYADGNRTFYLDSFK | GENVGAVDT | ND ND ND ND ND 2.36 | 2.36 | 0/18 |
| GFNLNEYGIS | VIYADGQRTSYIDGVK | GTNRVKGMG | ND ND ND ND ND ND | ND | 0/18 |
| GFNLDEYGVS | VIYADGMRMAYQNDVK | GQKGDVFFM | 0.85 0.22 0.31 -0.05 0.43 0.67 | 0.41 | 0/18 |
| GQDLNEYGIS | VIYADGLRTAYTNNFK | GVQAGFDQG | ND ND ND ND ND ND | ND | 0/18 |
| GFDLDQYGIS | VIYADGIRSVYADAVK | GHEGGILLV | ND ND ND ND ND ND | ND | 1/18 (2.76) |
| GFQLDEYGIS | VIYADGERTMYSNRVK | GNEGGTFDM | ND ND ND ND ND ND | ND | 0/18 |
| GFDLEEYGIS | VIYADGKRSQYTDAVK | GKFLDMMTY | ND ND ND ND ND ND | ND | 0/18 |
| GFELDEYGIS | VIYADGIRRQYADNVK | GETADAFDM | 0.58 0.13 0.42 0.35 0.23 1.11 | 0.47 | 0/18 |
| GFSLDEYGIS | VIYADGARAAYTNDFK | GNITGVFGK | ND ND 1.92 ND ND ND | 1.92 | 0/18 |
| GQSLEEYGIS | VIYADGQRNAAADEVK | GENAGTFDI | ND ND ND ND ND ND | ND | 1/18 (-0.53) |
| GFNLDEYGIS | VIYADGMRTAFGDNVK | GTNFGDFVF | ND ND ND ND ND ND | ND | 0/18 |
| GFNINEYGIS | VIYADGLRVQYIDSVK | GNASIFGLD | ND ND ND ND ND ND | ND | 0/18 |
| GQDLNEYGIS | VIYADGHRTMYANDVK | GKQGGIFED | ND ND ND ND ND ND | ND | 0/18 |
| GFDLEEYGIS | VIYADGQRFAYAQEFK | GEAAGAFDL | ND ND 1.44 ND 1.02 1.03 | 1.16 | 0/18 |
| GFDLNEYGIS | VIYADGIRTAYSKKFK | GEDGIVLLF | ND ND ND ND ND ND | ND | 1/18 (0.79) |
| GEDLNSYGIS | VIYADGLRTVYSDNFK | GNGGGQFDM | ND ND ND ND ND ND | ND | 0/18 |
| GFQLDEYGIS | VIYADGLRTVYDDAVK | GSDTGLFMI | ND ND ND ND ND ND | ND | 1/18 (1.36) |
| GEDLDEYGIS | VIYADGRRVVYQDQFK | GELAGTVDQ | 0.82 2.53 0.86 1.93 0.47 1.36 | 1.33 | 0/18 |
| GQSLDDYGIS | VIYADGQRKAYVDEVK | GYVAGTFDI | 0.33 0.32 0.34 -0.23 0.08 0.56 | 0.24 | 0/18 |
| GFDIDEYGIS | VIYADGIRQFYQDKVK | GNVGGMFDT | 1.06 ND 1.58 0.69 1.01 0.74 | 1.02 | 0/18 |
| GESLEEYGIS | VIYADGMRNAYVSKVK | GTVSGDFTI | ND ND ND ND ND ND | ND | 0/18 |
| GFQINEYGIS | VIYADGLRTAYSQQVK | GQDTVNFVD | ND ND ND ND ND ND | ND | 0/18 |
| GFDLQEYGIS | VIYADGLREAYSEKVK | GQLAGYFSF | ND ND ND ND ND ND | ND | 1/18 (2.51) |
| GFDLNEYGIS | VIYADGTRTYYANSFK | GDYVVVNSI | ND ND ND ND ND ND | ND | 0/18 |
| GDDLEAYGIS | VIYADGMRTYYSDAVK | GNVNGTFFD | ND ND ND ND ND ND | ND | 0/18 |
| GFKLDEYGIS | VIYADGMRTQYADKVK | VGHDGYVVQ | ND ND ND ND ND ND | ND | 0/18 |
| GKNIDEYGVS | VIYADGKRTAYANNFK | GGNAGFFKS | ND ND ND ND ND ND | ND | 1/18 (2.60) |
| GFSLGEYGIS | VIYADGKRDVYADSVK | GSESGWFDI | ND 2.81 ND ND 2.15 ND | 2.48 | 1/18 (3.05) |
| GFNLDEYGIS | VIYADGSRVAYRNTVK | GALGIGYSV | ND ND ND ND ND ND | ND | 0/18 |
| GFNLDEYGIS | VIYADGNRVFYADTVK | GLLGIGYSV | ND ND ND ND ND ND | ND | 1/18 (1.43) |
| GFDIEEYGIS | VIYADGKRAAYADSVK | GENMDIMTD | ND ND ND ND ND ND | ND | 0/18 |
| GFDLDEYGIS | VIYADGVRMAYTDRVK | GNWSGRDMY | ND ND ND ND ND ND | ND | 0/18 |
| GNDLNEYGIS | VIYADGQRTSYASSVK | GDIRGYFDS | ND 4.08 ND ND ND ND | 4.08 | 1/18 (3.20) |
| GFNLDEYGIS | VIYADGKRSMYTDKVK | GVVGDFMMD | ND ND ND ND ND ND | ND | 0/18 |

The opening 6 entries, copied out:

| CDR-H1 | CDR-H2 | CDR-H3 | log10 Kd, replicates | mean log10 Kd (nM) | control signals |
|---|---|---|---|---|---|
| GFNLEDYGIS | VIYADGKRQAYTENVK | CHSDGIMVV | 0.50 1.14 1.00 1.09 0.92 2.17 | 1.13 | 1/18 (2.22) |
| GFDLQEYGVS | VIYADGRRASYASKFK | GNHSGYFDK | ND ND ND ND ND ND | ND | 0/18 |
| GFDINEYGIS | VIYADGMRTKYSESVK | GTVDEDFNG | ND ND ND ND ND ND | ND | 0/18 |
| GFQLNEYGIS | VIYADGKRSEYADSVK | GGINSSFSV | ND ND ND ND ND ND | ND | 0/18 |
| GFDLLEYGIS | VIYADGMRVAYAKDVK | GMEGQLVVD | ND ND ND ND ND ND | ND | 0/18 |
| GFNLDEFGIS | VIYADGNRTFYLDSFK | GENVGAVDT | ND ND ND ND ND 2.36 | 2.36 | 0/18 |

Empty control strains, which show no peptide, gave a signal in 1% of pairings with all heavy chain designs; the median was 2.08 and 95% of these signals were weaker than 0.84. No background was subtracted. Also given: how often the same scFv was detected with the empty control strains, with their mean in brackets. The authors' rule: three or more of the six replicates give a measured affinity, fewer mean a poor binder. Values of this round are not directly comparable with the first-round values of the same sequences.